Test results as given in patent US20020164707A1, “Calcitonin gene related peptide receptor” (Human Genome Sciences, Inc., priority 1994, published 2002).

System: untransfected 293 cells
Experiment: cAMP response in untransfected control 293 cells
Format: cell-based, human
Description: Values represent the mean plus/minus SEM.
FIG. 6. Dose response of human CGRP-mediated cAMP accumulation in 293 cells (clone 22 cells from FIG. 5) stably transformed with the CGRP receptor cDNA. Each data point represents the mean of triplicate determinations.
The DNA sequence encoding CGRP receptor polypeptide, ATCC # 75824, was re-configured for -expression (with and without a C-terminal DET tag ([…])) in the mammalian expression vector PCDN. This involved the removal of the entire 3′ and 5′ untranslated regions along with two cryptic methionine residues at putative amino acid positions −11 and −1 located upstream from the chosen methionine that could potentially negatively influence the expression. To increase the efficiency of expression, a flanking Kozak consensus sequence (CCACC) was added to the chosen start methionine residue. The resulting constructs were separately transfected into both COS and Human Kidney 293 cells by DEAE dextran sulfate and Lipofectin reagent protocols, respectively. For transient expression cells were assayed at 72 hours post-transfection for the accumulation of cAMP in response to ligand exposure. […] For stable cell lines the transfected 293 cells were selected in the presence of 400 μg/ml of Geneticin (G418 Sulfate) and assayed for the accumulation of cAMP in response to CGRP.

CC(C)C[C@H](NC(=O)CNC(=O)[C@H](C)NC(=O)[C@H](CC(C)C)NC(=O)[C@H](CCCNC(=N)N)NC(=O)[C@H](Cc1c[nH]cn1)NC(=O)[C@@H](NC(=O)[C@@H](NC(=O)[C@@H]1CSSC[C@H](NC(=O)[C@H](C)N)C(=O)N[C@@H](CC(=O)O)C(=O)N[C@@H]([C@@H](C)O)C(=O)N[C@@H](C)C(=O)N[C@@H]([C@@H](C)O)C(=O)N1)C(C)C)[C@@H](C)O)C(=O)N[C@@H](CC(C)C)C(=O)N[C@@H](CO)C(=O)N[C@@H](CCCNC(=N)N)C(=O)N[C@@H](CO)C(=O)NCC(=O)NCC(=O)N[C@H](C(=O)N[C@H](C(=O)N[C@@H](CCCCN)C(=O)N[C@@H](CC(N)=O)C(=O)N[C@@H](CC(N)=O)C(=O)N[C@@H](Cc1ccccc1)C(=O)N[C@H](C(=O)N1CCC[C@H]1C(=O)N[C@H](C(=O)N[C@@H](CC(N)=O)C(=O)N[C@H](C(=O)NCC(=O)N[C@@H](CO)C(=O)N[C@@H](CCCCN)C(=O)N[C@@H](C)C(=O)N[C@@H](Cc1ccccc1)C(N)=O)C(C)C)[C@@H](C)O)C(C)C)C(C)C)C(C)C [human CGRP]
change in cAMP response (0.3 μM human CGRP, untransfected cells (control)): no change
stimulation of cAMP accumulation (control untransfected 293 cells, 1,000 nM concentration): two-fold stimulation
